Among the data in patent US20190252042A1, “INDENTIFICATION AND ANTIBIOTIC CHARACTERIZATION OF PATHOGENS IN METAGENOMIC SAMPLE” (BIOMÉRIEUX, priority 2016, published 2019) are AST profile values, retold here.

The subject of the assay is S aureus. The experiment in a line: Antibiotic Susceptibility Testing (AST) profile by classical microbiology, BAL sample 2. Format: cell-based. Particulars: positive BAL metagenomic sample 2, pathogen S aureus.

For the molecule `CCC[C@@H]1C[C@@H](C(=O)N[C@@H]([C@H]2O[C@H](SC)[C@H](O)[C@@H](O)[C@H]2O)[C@H](C)Cl)N(C)C1` [clindamycine], the AST profile result was “resistance: peniciline, clindamycine”.
